Test results published in PubChem BioAssay (NCATS).
The entries are a selection whose mix differs from that of the whole data set. Results filed as inconclusive are left out. Some salts or complexes appear as unconnected parts, following the source record. The source made the active and inactive calls. Calls follow the shape of the dose curve; as a rule, active = well fitted inhibition curve with a large enough effect; inconclusive = small, poorly fitted or top-dose-only effect; inactive = flat fitted curve, though single readings scatter.

Protein sequences, listed by entry. Tags and fused reporters are not part of them.
UniProt P07203, whole entry: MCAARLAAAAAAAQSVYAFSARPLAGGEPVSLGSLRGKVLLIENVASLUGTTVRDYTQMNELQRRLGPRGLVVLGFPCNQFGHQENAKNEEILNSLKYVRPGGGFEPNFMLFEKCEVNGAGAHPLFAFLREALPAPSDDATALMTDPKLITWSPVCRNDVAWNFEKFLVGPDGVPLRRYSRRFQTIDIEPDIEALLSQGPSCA
UniProt P36969, whole entry: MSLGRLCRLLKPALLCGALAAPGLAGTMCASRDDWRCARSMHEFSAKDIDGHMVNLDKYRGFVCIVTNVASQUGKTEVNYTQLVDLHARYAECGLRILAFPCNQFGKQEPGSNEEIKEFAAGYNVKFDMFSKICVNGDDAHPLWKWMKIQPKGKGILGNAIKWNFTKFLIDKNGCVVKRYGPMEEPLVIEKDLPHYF

molecular target: Glutathione peroxidase 1 (Homo sapiens) (UniProt P07203); assay: Primary qHTS Assay for Inhibitors of Recombinant Selenoprotein Glutathione Peroxidase 1 (GPX1) (AID 1845191); details: recombinant GPX1, GR-coupled NADPH fluorescence, 15 min; activity, negative = inhibition: at 48.8 µM (top of the series) unless noted
Description: (§1) Assay Provider: Elias S.J. Arner MD PhD.
(§2) Department of Medical Biochemistry and Biophysics
(§3) Karolinska Institutet, Solna, Stockholm, Sweden
(§4) Selenoprotein glutathione peroxidases (GPX), like the ubiquitously expressed GPX1 and the ferroptosis modulator GPX4, enact their antioxidant activities by reducing hydroperoxides using glutathione. […] GPX1 and GPX4 inhibitors have thus shown promise as anti-cancer agents. Existing inhibitors are often promiscuous, or modulate GPX activity only indirectly, so novel direct inhibitors identified through screening against GPX1 and GPX4 could be valuable. Here, we developed optimized glutathione reductase (GR)-coupled GPX assays for the biochemical high-throughput screen (HTS) of almost 12,000 compounds with known mechanisms of action. Initial hits were triaged using a GR counter-screen, assessed for isoform specificity using a separate GPX2 assay, and were assessed for general selenocysteine-targeting activity using a thioredoxin reductase (TXNRD1) assay. With this suite of assays, we identified novel GPX1/GPX2- and GPX4-specific inhibitors and can here present a validated pipeline for future discovery research for selenoprotein-targeting agents.
(§5) SEQUENCE No. (e.g., 1, 2, 3, etc.); […] (e.g., Cells, Incubation, Reagent, etc.); VALUE; DESCRIPTION.
1; Reagent 1; 3 uL; GPx1 enzyme or no enzyme control in 1536-well, black, solid Greiner assay plate.
(§6) 2; Compound; 25 nL; Kalypsis pin tool (Wako USA) equipped with a 1536-well pin head.
(§7) 3; Incubation; 30 min; room temperature.
4; Reagent 2; 1 uL; 10 nM GPX1, 1 mM GSH, 0.5 mM CHP, 0.5 mM NADPH, 100 nM GR, 0.01% BSA substrate
5; Detection; Fluorescence; ViewLux microplate reader, excitation 340 nm and emission 450 nm.
6; Incubation; 15 min; room temperature.
7; Detection; Fluorescence; ViewLux microplate reader, excitation 340 nm and emission 450 nm.
(§8) NOTES (numbers refer to Sequence numbers above)
(§9) 1. 3 uL of 16.66 nM GPX1 and 0.016% BSA in assay buffer (50 mM Tris-HCl, 2 mM EDTA (pH 7.5), 150 mM NaCl) was added to columns 3-48 of 1536-well assay plates using a BioRAPTR Flying Reagent Dispenser (Let's Go Robotics (LGR), Carlsbad, CA). A no-enzyme control (0.01% BSA in TES assay buffer) was added to columns 1-2.
2. 25 nL of test compounds and DMSO controls were added to each well with a pin tool (Kalypsys).
(§10) 3. The assay plates were incubated for 30 minutes at room temperature.
4. 1 uL of master mix (500 nM glutathione reductase (GR), 5 mM reduced glutathione (GSH), 2.5 mM NADPH in assay buffer) was added. 1 uL of cumene hydroperoxide (CHP) ([2.5 mM] in 50% EtOH) was then added within 5 minutes to initiate the reaction. Final concentrations were: 10 nM GPX1, 1 mM GSH, 0.5 mM CHP, 0.5 mM NADPH, 100 nM GR, 0.01% BSA.
5. Initial fluorescence readout (t=0) at 340/450 nm was measured using a ViewLux multimodal detector (PerkinElmer, Waltham, MA).
7. Endpoint fluorescence readout (t=15) at 340/450 nm was measured 15 min after room temperature incubation.
% is scaled to controls: 0 for no effect and ±100 for the full control effect.
Also: nearly all actives have a fitted effect of over 65% in size.

SMILES | activity, negative = inhibition | outcome
C/C1=C2/N=C(C(CC(N)=O)C2(C)CCC(=O)NCC(C)OP(=O)([O-])OC2C(CO)OC(n3cnc4cc(C)c(C)cc43)C2O)C2(C)N=C(/C(C)=C3N=C(/C=C4N=C1C(CCC(N)=O)C\4(C)C)C(CCC(N)=O)C/3(C)CC(N)=O)C(CCC(N)=O)C2(C)CC(N)=O.[C-]#N.[Co] (centres undefined) | inactive: -15.6% | –
O=[N+]([O-])OCC(CO[N+](=O)[O-])(CO[N+](=O)[O-])CO[N+](=O)[O-] | inactive: -10.7% | –
CC(C)OP(=O)(F)OC(C)C | inactive: -3.92% | –
C/C1=C2N=C(/C=C3N=C(/C(C)=C4\[N-][C@@](C)([C@@H]5N=C1[C@](C)(CCC(=O)NC[C@@H](C)OP(=O)([O-])O[C@H]1[C@@H](O)[C@@H](n6cnc7cc(C)c(C)cc76)O[C@@H]1CO)[C@H]5CC(N)=O)[C@@](C)(CC(N)=O)[C@@H]4CCC(N)=O)[C@@](C)(CC(N)=O)[C@@H]\3CCC(N)=O)C(C)(C)[C@@H]/2CCC(N)=O.[C-]#N.[Co+3] | inactive: -7.88% | –
O=[N+]([O-])c1cccc([N+](=O)[O-])c1 | inactive: -10.8% | –
C/C1=C2N=C(/C=C3N=C(/C(C)=C4\N=C(C(CC(N)=O)C4(C)CCC(=O)NCC(C)OP(=O)([O-])OC4C(CO)OC(n5cnc6cc(C)c(C)cc65)C4O)C4(C)N=C1C(CCC(N)=O)C4(C)CC(N)=O)C(CCC(N)=O)C\3(C)C)C(CCC(N)=O)C/2(C)CC(N)=O.[C-]#N.[Co] (centres undefined) | inactive: -16% [at 27.7 µM] | –
CCOP(=O)(CC)Oc1ccc([N+](=O)[O-])cc1 (centres undefined) | – | inactive

molecular target: Phospholipid hydroperoxide glutathione peroxidase GPX4 (Homo sapiens) (UniProt P36969); assay: Primary qHTS Assay for Inhibitors of Recombinant Selenoprotein Glutathione Peroxidase 4 (GPX4) (AID 1845192); details: recombinant GPX4, GR-coupled NADPH fluorescence, 15 min; activity change, negative = inhibition: at 50 µM (top of the series) unless noted
Description: as §1, §2, §3, §4, §5
1; Reagent 1; 3 uL; 333.33 nM GPx4 enzyme or no enzyme control in 1536-well, black, solid Greiner assay plate.
as §6, §7
4; Reagent 2; 1 uL; 500 nM GR, 5 mM GSH, 2.5 mM NADPH solution
5; Reagent 3; 1 uL; 2.5 mM CHP in 50% EtOH.
6; Detection; Fluorescence; ViewLux microplate reader, excitation 340 nm and emission 450 nm.
7; Incubation; 15 min; room temperature.
8; Detection; Fluorescence; ViewLux microplate reader, excitation 340 nm and emission 450 nm.
as §8
as §9, with “µL” for “uL”, “333.33” for “16.66”, “GPX4” for “GPX1”, “1536-well” for “1536-well assay”
2. 25 nL, library and DMSO controls were added to each well with a pin tool (Kalypsys).
as §10
4. 1 µL of master mix (500 nM glutathione reductase (GR), 5 mM reduced glutathione (GSH), 2.5 mM NADPH in assay buffer) was added.
5. 1 µL of cumene hydroperoxide (CHP) ([2.5 mM] in 50% EtOH) was then added within 5 minutes to initiate the reaction. Final concentrations were: 200 nM GPX4, 1 mM GSH, 0.5 mM CHP, 0.5 mM NADPH, 100 nM GR, 0.01% BSA.
6. Initial fluorescence readout (t=0) at 340/450 nm was measured using a ViewLux multimodal detector (PerkinElmer, Waltham, MA).
8. Endpoint fluorescence readout (t=15) at 340/450 nm was measured 15 min after room temperature incubation.

SMILES | outcome | activity change, negative = inhibition
C/C1=C2/N=C(C(CC(N)=O)C2(C)CCC(=O)NCC(C)OP(=O)([O-])OC2C(CO)OC(n3cnc4cc(C)c(C)cc43)C2O)C2(C)N=C(/C(C)=C3N=C(/C=C4N=C1C(CCC(N)=O)C\4(C)C)C(CCC(N)=O)C/3(C)CC(N)=O)C(CCC(N)=O)C2(C)CC(N)=O.[C-]#N.[Co] (centres undefined) | inactive | –
O=[N+]([O-])OCC(CO[N+](=O)[O-])(CO[N+](=O)[O-])CO[N+](=O)[O-] | – | inactive: -12.9%
CC(C)OP(=O)(F)OC(C)C | – | inactive: -4.84%
C/C1=C2N=C(/C=C3N=C(/C(C)=C4\[N-][C@@](C)([C@@H]5N=C1[C@](C)(CCC(=O)NC[C@@H](C)OP(=O)([O-])O[C@H]1[C@@H](O)[C@@H](n6cnc7cc(C)c(C)cc76)O[C@@H]1CO)[C@H]5CC(N)=O)[C@@](C)(CC(N)=O)[C@@H]4CCC(N)=O)[C@@](C)(CC(N)=O)[C@@H]\3CCC(N)=O)C(C)(C)[C@@H]/2CCC(N)=O.[C-]#N.[Co+3] | – | inactive: -5.71%
O=[N+]([O-])c1cccc([N+](=O)[O-])c1 | – | inactive: -17.5%
C/C1=C2N=C(/C=C3N=C(/C(C)=C4\N=C(C(CC(N)=O)C4(C)CCC(=O)NCC(C)OP(=O)([O-])OC4C(CO)OC(n5cnc6cc(C)c(C)cc65)C4O)C4(C)N=C1C(CCC(N)=O)C4(C)CC(N)=O)C(CCC(N)=O)C\3(C)C)C(CCC(N)=O)C/2(C)CC(N)=O.[C-]#N.[Co] (centres undefined) | – | inactive: -7.51% [at 27.8 µM]
CCOP(=O)(CC)Oc1ccc([N+](=O)[O-])cc1 (centres undefined) | inactive | –
